The values below come from patent US20240366649A1, “4-ETHYNYL-3-HYDROXY-TETRAHYDROFURANYL-ADENINE PHOSPHORAMIDATES AND RELATED COMPOUNDS AND THEIR USE IN TREATING MEDICAL CONDITIONS” (ROME THERAPEUTICS, INC., priority 2021, published 2024).

Each structure is given as a SMILES string.

The experiment deals with IFN production in THP1 TREX1 KO cells. Description: Cellular assay for altering IFN production in THP1 TREX1 KO cells. Conditions: for Maximum IFN Induction: maximum-fold IFN induction, 1 μM 5-aza-2′-deoxycytidine, five days. The method, then: THP1-Dual™ KO-TREX1 cells were purchased from Invivogen (cat #thpd-kotrex). The THP1-Dual™ KO-TREX1 cells were cultured in RPMI 1640, 10% heat-inactivated fetal bovine serum, 25 mM HEPES, 10 μg/mL Blasticidin, and […] Zeocin. THP1-Dual™ KO-TREX cells were treated with a dose titration of test compound in the presence of 1 μM 5-aza-2′-deoxycytidine (Sigma, cat #189825). Type 1 Interferon and cell viability were assessed after five days of treatment.
Stock solution of test compound was prepared in DMSO followed by a three-fold dilution in DMSO. Additional 50× dilution was prepared in cell culture media for each dilution. 10 μL of diluted test compound was then added to a 384-well plate.
THP1-Dual™ KO-TREX1 cells were treated with 1 μM 5-aza-2′-deoxycytidine. THP1-Dual™ KO-TREX1 cells (50 μL) were added to each well of the 384-well plate containing test compound titration at 10,000 cells/well. Cells were incubated at 37° C., 5% CO2 in a humidified incubator for five days. On day five, 20 μL of cell supernatant was transferred to a 384-well, white-walled plate, followed by addition to each well of 50 μL of QUANTI-LUC solution containing stabilizer. Luminescence was detected on a plate reader according to manufacturer's instructions.
For certain compounds, the assay was run in a 96-well format, with the following modifications: • 190 μL, instead of 50 μL, of cells were added to each well, to provide 50,000 cells/well, instead of 10,000 cells/well, • Cells were incubated for 6 days, instead of 5 days, • 25 μL, instead of 20 μL, of cell supernatant was added to the white-walled plate for QUANT-LUC treatment; and • 25 μL, instead of 30 μL, of CellTiter-Glo was added to assess cell viability.
Percent inhibition of interferon was calculated using the following analysis: (Average DMSO-Sample)/(Average DMSO-Average 30 μM control reagent)*100. The control reagent for inhibition of interferon was a specific nucleoside reverse-transcriptase inhibitor with molecular weight <600 a.m.u. Percent induction of interferon was calculated using the following analysis: (Sample-Average DMSO)/(10 μM control reagent-Average DMSO)*100. The control reagent for induction of interferon was compound 8 (4′-ethynyl-2-chloro-2′-deoxyadenosine).

For `C#C[C@]1(COP(=O)(N[C@@H](C)C(=O)OCc2ccccc2)Oc2ccccc2)O[C@@H](n2cnc3c(N)nc(Cl)nc32)C[C@@H]1O` (stereo partly shown), the “Maximum IFN Induction” value is reported as “>> (values from 1.50 to 2.00)”.

`C#C[C@]1(COP(=O)(N[C@@H](C)C(=O)OC)Oc2ccc(Br)cc2)O[C@@H](n2cnc3c(N)nc(Cl)nc32)C[C@@H]1O` (stereo partly shown): the “Maximum IFN Induction” value is listed as “>> (values from 1.50 to 2.00)”. As to `C#C[C@]1(COP(=O)(N[C@@H](C)C(=O)OCC)Oc2ccccc2)O[C@@H](n2cnc3c(N)nc(Cl)nc32)C[C@@H]1O` (stereo partly shown), the “Maximum IFN Induction” value is “>> (values from 1.50 to 2.00)”. Further, the “Concentration at Max Induct.” value (lowest concentration at which the maximum-fold IFN induction was observed) came to 10 µM.
